Binding of CDR-mutated scFvs to a peptide of the spike HR2 region

Source: Li et al. 2023 (doi:10.1038/s41467-023-39022-2), MIT Lincoln Laboratory and A-Alpha Bio; data file from the FLAb repository.

Antigen: PDVDLGDISGINAS, a 14-residue peptide of the SARS-CoV-2 spike HR2 region.

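Phage display of a naive human antibody library on the peptide gave the parent. Designed CDR sequences, proposed from the first random library and measured here. Their group label is 14H_En_HC (En: ensemble of fine-tuned language models; HC: hill climbing; a sequence that several methods proposed may carry one label only). The assay is AlphaSeq: two haploid yeast populations carry antibody and antigen on their surface. The frequency of each diploid, read from paired DNA barcodes, reflects how well the two displayed proteins bind. Read counts were normalised to the haploid input and turned into Kd by a linear fit to BCL2-family pairs of known affinity, for each replicate. Mating was done six times.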

Parent scFv Ab-14: VH joined to VL by the linker GGGGSGGGGSGGGGS. Changes lie in the heavy chain CDRs alone.
VH: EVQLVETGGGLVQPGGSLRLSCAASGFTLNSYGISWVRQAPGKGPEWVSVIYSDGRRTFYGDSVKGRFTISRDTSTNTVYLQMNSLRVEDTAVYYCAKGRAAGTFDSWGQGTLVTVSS
VL: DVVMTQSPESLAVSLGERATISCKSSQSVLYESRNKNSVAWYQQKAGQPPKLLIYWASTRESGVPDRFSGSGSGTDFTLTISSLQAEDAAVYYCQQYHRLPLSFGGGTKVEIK

Variants are written as CDR1, CDR2 and CDR3 of the heavy chain (limits as in the source). Parent: GFTLNSYGIS, VIYSDGRRTFYGDSVK, GRAAGTFDS. Values are log10 of the apparent Kd in nM; lower means stronger binding. Replicates are averaged; those with no signal do not enter the mean. An entry "nd" has no value in the source: the pair was not observed among the diploids in that replicate. This suggests poor binding but is not conclusive.

| CDR-H1 | CDR-H2 | CDR-H3 | log10 Kd (nM) by replicate | log10 Kd (nM), mean | signal with controls |
|---|---|---|---|---|---|
| GFDLNEYGIS | VIYADGSRTFYSDSVK | GQTAGTFDT | 0.45 0.19 0.25 0.12 0.73 0.55 | 0.38 | 0 of 18 |
| GFDLNEYGIS | VIYADGRRTFYVDSVK | GQVAGTFNV | -0.28 -0.64 -0.68 -0.89 -0.92 -0.62 | -0.67 | 1 of 18 (1.44) |
| GFDLNEYGIS | VIYADGRRTFYADSVK | GANAGTFDQ | -0.03 -0.22 -0.68 -0.64 -0.68 -0.44 | -0.45 | 0 of 18 |
| GFDLNEYGIS | VIYADGRRTAYIDSVK | GNIAGTFDS | -0.65 -0.84 -1.11 -1.37 -0.79 -0.57 | -0.89 | 0 of 18 |
| GFDLNEYGIS | VIYADGRRTAYIDSVK | GEVAGTFDM | -0.79 -0.52 -1.03 -1.60 -0.89 -0.81 | -0.94 | 0 of 18 |
| GFDLNEYGIS | VIYADGMRTQYIDSVK | GETAGTFDL | 0.56 -0.18 -0.34 -0.29 -0.40 -0.14 | -0.13 | 0 of 18 |
| GFDLDEYGIS | VIYADGMRTFYADSVK | GTLAGTFDA | 0.17 0.13 -0.55 0.06 0.34 -0.36 | -0.04 | 0 of 18 |
| GFDLNEYGIS | VIYADGRRTFYIDSVK | GTNAGTFDA | -1.25 -1.54 -0.41 -0.94 -0.84 -1.28 | -1.04 | 0 of 18 |
| GFDLNEYGIS | VIYADGKRTFYADSVK | GQAAGTFDM | -0.14 -0.62 -0.47 -0.90 -0.22 0.07 | -0.38 | 0 of 18 |
| GFDLNEYGIS | VIYADGRRTFYSDSVK | GEAAGTFDV | -0.43 -0.63 -0.70 -0.37 -0.57 -0.59 | -0.55 | 1 of 18 (2.25) |
| GFDLNEYGIS | VIYADGVRTFYSDSVK | GQLAGTFDV | -0.42 -0.55 -0.61 -0.70 -0.51 -0.48 | -0.55 | 1 of 18 (1.84) |
| GFDIDEYGIS | VIYADGMRTFYADSVK | GTNAGTFDS | -0.36 -0.81 -0.94 -0.59 -0.46 -0.78 | -0.66 | 0 of 18 |
| GFDLNEYGIS | VIYADGRRTQYIDSVK | GNTAGTFDS | 0.75 1.49 0.46 0.26 0.60 0.91 | 0.75 | 2 of 18 (1.41) |
| GFDLNEYGIS | VIYADGRRTAYIDSVK | GHAAGTFDF | 0.13 0.09 -0.20 -0.21 -0.29 0.10 | -0.06 | 0 of 18 |
| GFDLNEYGIS | VIYADGMRTFYADSVK | GQLAGTFDL | 0.29 -0.18 -0.05 -0.53 0.20 -0.04 | -0.05 | 0 of 18 |
| GFNLNEYGIS | VIYADGRRTFYADSVK | GETAGTFDI | -0.49 -0.39 -0.32 -0.46 -0.68 -0.47 | -0.47 | 1 of 18 (2.78) |
| GFDLDEYGIS | VIYADGRRTFYIDSVK | GEVAGTFDV | 0.39 -0.29 0.16 -0.04 0.10 0.19 | 0.09 | 0 of 18 |
| GFSLDEYGIS | VIYADGRRTFYADSVK | GEVAGTFDV | -0.62 -0.42 -0.65 -0.74 -0.85 -0.75 | -0.67 | 1 of 18 (2.22) |
| GFDLNEYGIS | VIYADGLRTSYADSVK | GTNAGTFDQ | -1.18 -1.87 -1.63 nd -2.72 -1.49 | -1.78 | 0 of 18 |
| GFDLDEYGIS | VIYADGRRTFYADSVK | GQVAGTFDS | -0.36 0.07 -0.55 -0.17 -0.49 -0.17 | -0.28 | 0 of 18 |
| GFDLEDYGIS | VIYADGRRTFYADSVK | GNVAGTFDS | -0.46 -1.19 nd -1.59 -0.55 -0.41 | -0.84 | 0 of 18 |
| GFNLNEYGIS | VIYADGQRTFYADSVK | GQVAGTFDM | -0.45 -0.40 -0.46 -0.89 -0.67 -0.35 | -0.54 | 1 of 18 (1.61) |
| GFDLEDYGIS | VIYADGRRTAYADSVK | GEAAGTFDS | -0.32 -0.50 -0.81 -0.74 -0.65 -0.55 | -0.59 | 0 of 18 |
| GFDLNEYGIS | VIYADGVRTQYIDSVK | GNQAGTFDS | nd 0.09 0.19 -0.48 0.05 0.31 | 0.03 | 0 of 18 |
| GFDLNEYGIS | VIYADGRRTFYADSVK | GQVAGTFDI | -0.48 -0.65 -0.22 -0.93 -0.83 0.07 | -0.51 | 0 of 18 |
| GFNLDEYGIS | VIYADGRRTFYSDSVK | GEAAGTFDI | -0.15 -0.21 -0.27 -0.24 -0.21 -0.24 | -0.22 | 1 of 18 (1.75) |
| GFDLDEYGIS | VIYADGRRTFYIDSVK | GETAGTFDT | -0.30 -0.79 -1.20 -0.18 -0.84 -0.69 | -0.67 | 0 of 18 |
| GFNLDEYGIS | VIYADGRRTFYADNVK | GEAGGTFDI | 0.03 0.88 1.27 0.88 0.76 0.17 | 0.66 | 0 of 18 |
| GFDLDEYGIS | VIYADGRRTFYIDSVK | GETAGTFDS | -0.14 -0.30 -0.14 -0.23 -0.49 -0.59 | -0.32 | 0 of 18 |
| GFDLNEYGIS | VIYADGRRTFYSDSVK | GAVAGTFDL | -0.80 -0.86 -0.57 -0.45 -0.37 -0.14 | -0.53 | 0 of 18 |
| GFDLNEYGIS | VIYADGMRTFYTDSVK | GNAAGTFLV | 0.09 0.32 0.22 -0.02 -0.15 0.28 | 0.13 | 0 of 18 |
| GFDLEDYGIS | VIYADGRRTFYVDSVK | GKVAGTFDV | -0.34 -0.65 -0.59 -0.82 -0.74 -0.34 | -0.58 | 0 of 18 |
| GFSLDEYGIS | VIYADGRRTFYADSVK | GESAGTFDS | 0.33 -0.41 -0.10 -0.27 0.50 -0.34 | -0.05 | 0 of 18 |
| GFDLEDYGIS | VIYADGRRTAYIDSVK | GEAAGTFDF | 0.17 -0.38 -0.23 -0.02 -0.40 0.14 | -0.12 | 0 of 18 |
| GFDLNEYGIS | VIYADGRRTFYADDVK | GNVAGTFDL | -0.51 -0.42 -0.72 -0.91 -0.22 -0.26 | -0.51 | 1 of 18 (1.57) |
| GFNLNEYGIS | VIYADGMRTFYSDSVK | GEHAGTFDV | -0.04 -0.15 -0.51 -0.54 -0.32 -0.42 | -0.33 | 0 of 18 |
| GFDLNEYGIS | VIYADGRRTFYADSVK | GEIAGTFDK | nd nd nd nd nd nd | nd | 0 of 18 |
| GFDLNEYGIS | VIYADGKRTFYSDSVK | GNAGGTFDV | 0.31 0.74 0.29 0.38 0.28 0.24 | 0.37 | 0 of 18 |
| GFDLNEYGIS | VIYADGRRTFYTDDVK | GEVAGTFDV | -0.45 -0.64 -0.67 -0.80 -0.75 -0.56 | -0.65 | 0 of 18 |
| GFDLDEYGIS | VIYADGKRTFYADSVK | GTLAGTFDA | -0.33 -0.48 -0.94 -0.80 -0.84 -0.17 | -0.59 | 0 of 18 |
| GFDLNEYGIS | VIYADGRRTFYSDSVK | GEVAGTFDT | 0.00 0.27 -0.10 -0.07 -0.31 -0.05 | -0.04 | 1 of 18 (3.63) |
| GFDLESYGIS | VIYADGSRTAYADSVK | GNVAGTFNL | nd nd nd -0.23 nd nd | -0.23 | 0 of 18 |
| GFDLNEYGIS | VIYADGMRTFYADSVK | GEAAGTFDQ | 0.57 0.09 0.84 0.65 0.53 0.04 | 0.45 | 0 of 18 |
| GFDLNEYGIS | VIYADGHRTFYSDSVK | GQTAGTFDA | -0.47 -0.43 -0.55 -0.64 -0.63 -0.11 | -0.47 | 0 of 18 |
| GFDLDEYGIS | VIYADGRRTFYADSVK | GEVAGTFTS | -0.43 -0.38 0.03 -0.40 -0.34 0.00 | -0.25 | 0 of 18 |
| GFQLDEYGIS | VIYADGQRTFYADSVK | GEVAGTFDV | -0.24 -0.22 -0.26 -0.28 -0.39 -0.22 | -0.27 | 0 of 18 |
| GFDLNEYGIS | VIYADGRRTQYIDSVK | GNQAGTFDE | 0.08 -0.01 -0.16 -0.36 0.09 0.00 | -0.06 | 1 of 18 (1.72) |
| GFDLDEYGIS | VIYADGRRTFYIDSVK | GETAGTFDM | 0.35 0.00 -0.50 -0.34 -0.43 -0.29 | -0.20 | 1 of 18 (2.40) |
| GFDLDEYGIS | VIYADGMRTFYADSVK | GNTAGTFDS | -0.19 -0.24 -0.69 -0.18 -0.30 -0.21 | -0.30 | 0 of 18 |

The last 5 entries again:

{"CDR-H1": "GFDLDEYGIS", "CDR-H2": "VIYADGRRTFYADSVK", "CDR-H3": "GEVAGTFTS", "log10 Kd (nM) by replicate": "-0.43 -0.38 0.03 -0.40 -0.34 0.00", "log10 Kd (nM), mean": "-0.25", "signal with controls": "0 of 18"}
{"CDR-H1": "GFQLDEYGIS", "CDR-H2": "VIYADGQRTFYADSVK", "CDR-H3": "GEVAGTFDV", "log10 Kd (nM) by replicate": "-0.24 -0.22 -0.26 -0.28 -0.39 -0.22", "log10 Kd (nM), mean": "-0.27", "signal with controls": "0 of 18"}
{"CDR-H1": "GFDLNEYGIS", "CDR-H2": "VIYADGRRTQYIDSVK", "CDR-H3": "GNQAGTFDE", "log10 Kd (nM) by replicate": "0.08 -0.01 -0.16 -0.36 0.09 0.00", "log10 Kd (nM), mean": "-0.06", "signal with controls": "1 of 18 (1.72)"}
{"CDR-H1": "GFDLDEYGIS", "CDR-H2": "VIYADGRRTFYIDSVK", "CDR-H3": "GETAGTFDM", "log10 Kd (nM) by replicate": "0.35 0.00 -0.50 -0.34 -0.43 -0.29", "log10 Kd (nM), mean": "-0.20", "signal with controls": "1 of 18 (2.40)"}
{"CDR-H1": "GFDLDEYGIS", "CDR-H2": "VIYADGMRTFYADSVK", "CDR-H3": "GNTAGTFDS", "log10 Kd (nM) by replicate": "-0.19 -0.24 -0.69 -0.18 -0.30 -0.21", "log10 Kd (nM), mean": "-0.30", "signal with controls": "0 of 18"}

In the paper, a design with two or fewer of six values counts as a poor binder. The parent sequence was in this pool as ten entries: three were never detected, three once, and four in most replicates, with averages from 0.34 to 2.37. A sequence measured in both rounds can read differently, since the two assays cover different ranges. Empty control strains, which show no peptide, gave a signal in 1% of pairings with all heavy chain designs; the median was 2.08 and 95% of these signals were weaker than 0.84. No background was subtracted. For each scFv, signals with the empty controls are counted beside the result, with their mean in brackets.